Results as given in publication PMC6881340.

Target: actin filament (UniProt P68135)
Assay: darkfield tracking of a gold nanoparticle on a single myosin head; as a2 but data taken at 19 ± 0.5 °C, 40 µs time resolution; trajectories analysed by nonparametric Bayesian inference (hidden Markov model, 1000 inferences) for transient (weak) binding states

dwell time of the transient binding state at 9.9 nm: 238 μs | dwell time of the transient binding state at 22.8 nm: 513 μs | dwell time of the transient binding state at -1.1 nm: 160 μs | dwell time of the transient binding state at -12.9 nm: 237 μs | dwell time of the transient state at 10.0 nm, one typical inference: 278 μs | dwell time of the transient state at 21.9 nm, one typical inference: 486 μs | dwell time of the transient state at -1.3 nm, one typical inference: 160 μs | dwell time of the transient state at -12.5 nm, one typical inference: 299 μs | fold prolongation of the dwell time, strong binding against weak binding: 250 fold
Substance: lever-arm-less S1 of human skeletal muscle myosin IIa (light chain null construct), SNAP-FLAG-His, oligonucleotide-labeled (from UniProt Q9UKX2 1-849) (domain or fragment)
